Test results reported in article PMC7594198 (International Journal of Nanomedicine, 2020).
Like-named read-outs stand apart in the source and are kept apart here.

How the values were obtained:
[1] = tested on: peptide aptamer immobilized on GO chip; test: SPR angle shift on hCG binding to peptide, GO-based chip, PBS buffer; details: for SPR angle shift: GO chip, 30 μL/min
[2] = tested on: peptide probe immobilized on carboxyl-GO chip; test: SPR selectivity test with interfering proteins, spiked 10% serum; format: binding; details: protein 500 pM, 60 μL/min, measured six times
[3] = tested on: peptide probe immobilized on carboxyl-GO chip; test: SPR detection of hCG in clinical serum samples, peptide-carboxyl-GO chip; format: binding; details: for mean hCG SPR angle: mean ± SD
[4] = tested on: peptide probe immobilized on carboxyl-GO chip; test: SPR selectivity test with interfering proteins, PBS buffer; format: binding; details: for average SPR angle shift: protein 500 pM, PBS buffer, 60 μL/min, measured six times
[5] = until pre-pregnancy levels are reached; cited from earlier work
[6] = tested on: peptide aptamer immobilized on carboxyl-GO chip; test: SPR angle shift on hCG binding to peptide, carboxyl-GO-based chip, PBS buffer; details: for SPR angle shift: carboxyl-GO chip, 30 μL/min
[7] = cited from earlier work

Substance: Human chorionic gonadotropin [hCG]
- Detection Limit ([1]; GO-based chip, n = 3): 10 pM
- SPR angle shift ([1]; hCG 10 pM): 0.809 m^o
- θSPR at detection limit ([1]; hCG 10 pM, GO-based chip, n = 3): 0.81 ± 0.1 m^o
- SPR angle shift ([1]; hCG 50 pM): 2.467 m^o
- SPR angle shift ([1]; hCG 100 pM): 6.106 m^o
- SPR angle shift ([1]; hCG 250 pM): 8.334 m^o
- SPR angle shift ([1]; hCG 500 pM): 11.557 m^o
- SPR angle shift ([1]; hCG 1 nM): 22.155 m^o
- average SPR angle shift [2]: 19.13 m^o
- mean hCG SPR angle ([3]; FDSW group (n = 6), 5k-fold, P=0.004 vs NPW): 44.27 ± 13.29 m^o
- mean hCG SPR angle ([3]; FDSW group (n = 6), 10k-fold, P=0.013 vs NPW): 22.53 ± 5.58 m^o
- SPR angle shift ([3]; FDSW-1, serum 5k-fold (76.4 pM)): 41.88 m^o
- SPR angle shift ([3]; FDSW-1, serum 10k-fold): 21.76 m^o
- SPR angle shift ([3]; FDSW-1, serum 200k-fold (1.9 pM)): 0.97 m^o
- SPR angle shift ([3]; FDSW-2, serum 5k-fold (135 pM)): 66.69 m^o
- SPR angle shift ([3]; FDSW-2, serum 10k-fold): 21.56 m^o
- SPR angle shift ([3]; FDSW-2, serum 200k-fold (3.4 pM)): 1.25 m^o
- SPR angle shift ([3]; FDSW-3, serum 5k-fold (97.8 pM)): 44.48 m^o
- SPR angle shift ([3]; FDSW-3, serum 10k-fold): 19.26 m^o
- SPR angle shift ([3]; FDSW-3, serum 200k-fold (2.4 pM)): 6.74 m^o
- SPR angle shift ([3]; FDSW-4, serum 5k-fold (83.7 pM)): 30.18 m^o
- SPR angle shift ([3]; FDSW-4, serum 10k-fold): 17.79 m^o
- SPR angle shift ([3]; FDSW-4, serum 200k-fold (2.1 pM)): 4.75 m^o
- SPR angle shift ([3]; FDSW-5, serum 5k-fold (86.2 pM)): 32.33 m^o
- SPR angle shift ([3]; FDSW-5, serum 10k-fold): 21.37 m^o
- SPR angle shift ([3]; FDSW-5, serum 200k-fold (2.2 pM)): 2.47 m^o
- SPR angle shift ([3]; FDSW-6, serum 5k-fold (105.1 pM)): 50.05 m^o
- SPR angle shift ([3]; FDSW-6, serum 10k-fold): 33.46 m^o
- SPR angle shift ([3]; FDSW-6, serum 200k-fold (2.6 pM)): 0.49 m^o
- mean hCG SPR angle ([3]; NPW group (n = 4), 5k-fold, P=0.004 vs FDSW): 17.43 ± 2.60 m^o
- mean hCG SPR angle ([3]; NPW group (n = 4), 10k-fold, P=0.013 vs FDSW): 11.55 ± 4.87 m^o
- SPR angle shift ([3]; NPW-1, 15 weeks, serum 5k-fold (32.8 pM)): 17.83 m^o
- SPR angle shift ([3]; NPW-1, 15 weeks, serum 10k-fold (16.4 pM)): 9.27 m^o
- SPR angle shift ([3]; NPW-2, 12 weeks, serum 5k-fold (34.1 pM)): 17.67 m^o
- SPR angle shift ([3]; NPW-2, 12 weeks, serum 10k-fold (17.0 pM)): 11.13 m^o
- SPR angle shift ([3]; NPW-3, 14 weeks, serum 5k-fold (25.3 pM)): 13.95 m^o
- SPR angle shift ([3]; NPW-3, 14 weeks, serum 10k-fold (12.65 pM)): 7.32 m^o
- SPR angle shift ([3]; NPW-4, 17 weeks, serum 5k-fold (37.07 pM)): 20.25 m^o
- SPR angle shift ([3]; NPW-4, 17 weeks, serum 10k-fold (18.53 pM)): 18.46 m^o
- θSPR at LOD ([3]; hCG 1.9 pM in serum, carboxyl-GO chip, n = 3): 0.97 ± 0.1 m^o
- average SPR angle shift [4]: 17.19 m^o
- half-life [5]: 24 to 36 h
- SPR angle shift ([6]; hCG 1 pM): 0.287 m^o
- θSPR at detection limit ([6]; hCG 1 pM, carboxyl-GO-based chip, n = 3): 0.287 ± 0.03 m^o
- SPR angle shift ([6]; hCG 10 pM): 1.264 m^o
- SPR angle shift ([6]; hCG 50 pM): 3.527 m^o
- SPR angle shift ([6]; hCG 100 pM): 7.532 m^o
- SPR angle shift ([6]; hCG 250 pM): 10.073 m^o
- SPR angle shift ([6]; hCG 500 pM): 16.476 m^o
- SPR angle shift ([6]; hCG 1 nM): 32.118 m^o
- Detection Limit ([7]; ELISA, serum samples): 18 mIU/mL
- Detection Limit ([7]; ELISA, urine samples): 17 mIU/mL
- Detection Limit ([7]; Electrochemistry (LPCs-SnS2 and AuNPs), serum samples): 6.4 pg/mL
- Detection Limit ([7]; Electrochemistry (silver nanoparticles), serum samples): 0.4 mIU/mL
- Detection Limit ([7]; Fluorescent (graphene oxide), buffer samples): 20 mIU/mL
- θSPR at detection limit ([7]; GO-COOH-based SPR biosensor, serum of pregnant women (14 weeks), 1.15 pM): 1.56 ± 0.2 m^o

Substance: human serum albumin [HSA]
- average SPR angle shift [2]: 2.41 m^o
- interference signal ([4]; 500 pM, carboxyl-GO-based SPR aptasensor, PBS and spiked 10% serum): close to that of a blank solution
- average SPR angle shift [4]: 1.52 m^o
